Measured values published in the Kinase Knowledgebase extract (Sharma et al. 2016).

The chains behind the UniProt entries cited, without tags or fusion partners. Where a name states a change or a piece, a line headed by the entry shows the natural chain unless it says otherwise.
UniProt P42338: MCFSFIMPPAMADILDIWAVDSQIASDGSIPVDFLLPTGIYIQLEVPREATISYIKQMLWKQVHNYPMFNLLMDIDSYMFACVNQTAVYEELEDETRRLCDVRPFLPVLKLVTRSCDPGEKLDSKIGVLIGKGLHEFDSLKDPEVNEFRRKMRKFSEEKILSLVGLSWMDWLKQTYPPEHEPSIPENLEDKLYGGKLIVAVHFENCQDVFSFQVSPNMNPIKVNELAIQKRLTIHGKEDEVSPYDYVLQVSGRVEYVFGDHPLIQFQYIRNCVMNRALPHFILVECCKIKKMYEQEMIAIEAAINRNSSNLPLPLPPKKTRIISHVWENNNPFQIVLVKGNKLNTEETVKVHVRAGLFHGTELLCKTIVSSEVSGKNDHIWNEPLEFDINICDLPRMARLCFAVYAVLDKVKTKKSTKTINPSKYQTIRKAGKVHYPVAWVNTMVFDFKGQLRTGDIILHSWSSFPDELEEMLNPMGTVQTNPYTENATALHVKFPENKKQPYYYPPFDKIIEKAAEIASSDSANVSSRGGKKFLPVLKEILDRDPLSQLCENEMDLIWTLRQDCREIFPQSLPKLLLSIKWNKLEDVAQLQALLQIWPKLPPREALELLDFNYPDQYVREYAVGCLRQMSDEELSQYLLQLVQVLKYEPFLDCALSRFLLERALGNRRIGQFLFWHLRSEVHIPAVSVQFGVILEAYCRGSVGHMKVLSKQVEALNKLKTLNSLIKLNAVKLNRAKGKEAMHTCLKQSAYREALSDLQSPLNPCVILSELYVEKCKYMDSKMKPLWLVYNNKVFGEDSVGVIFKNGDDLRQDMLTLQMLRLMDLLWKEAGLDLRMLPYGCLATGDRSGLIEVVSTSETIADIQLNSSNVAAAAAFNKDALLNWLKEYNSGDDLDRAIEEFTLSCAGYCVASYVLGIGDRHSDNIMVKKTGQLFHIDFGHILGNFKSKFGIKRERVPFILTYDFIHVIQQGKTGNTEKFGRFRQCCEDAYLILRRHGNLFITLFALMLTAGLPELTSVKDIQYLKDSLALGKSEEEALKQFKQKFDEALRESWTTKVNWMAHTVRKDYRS
UniProt O00329: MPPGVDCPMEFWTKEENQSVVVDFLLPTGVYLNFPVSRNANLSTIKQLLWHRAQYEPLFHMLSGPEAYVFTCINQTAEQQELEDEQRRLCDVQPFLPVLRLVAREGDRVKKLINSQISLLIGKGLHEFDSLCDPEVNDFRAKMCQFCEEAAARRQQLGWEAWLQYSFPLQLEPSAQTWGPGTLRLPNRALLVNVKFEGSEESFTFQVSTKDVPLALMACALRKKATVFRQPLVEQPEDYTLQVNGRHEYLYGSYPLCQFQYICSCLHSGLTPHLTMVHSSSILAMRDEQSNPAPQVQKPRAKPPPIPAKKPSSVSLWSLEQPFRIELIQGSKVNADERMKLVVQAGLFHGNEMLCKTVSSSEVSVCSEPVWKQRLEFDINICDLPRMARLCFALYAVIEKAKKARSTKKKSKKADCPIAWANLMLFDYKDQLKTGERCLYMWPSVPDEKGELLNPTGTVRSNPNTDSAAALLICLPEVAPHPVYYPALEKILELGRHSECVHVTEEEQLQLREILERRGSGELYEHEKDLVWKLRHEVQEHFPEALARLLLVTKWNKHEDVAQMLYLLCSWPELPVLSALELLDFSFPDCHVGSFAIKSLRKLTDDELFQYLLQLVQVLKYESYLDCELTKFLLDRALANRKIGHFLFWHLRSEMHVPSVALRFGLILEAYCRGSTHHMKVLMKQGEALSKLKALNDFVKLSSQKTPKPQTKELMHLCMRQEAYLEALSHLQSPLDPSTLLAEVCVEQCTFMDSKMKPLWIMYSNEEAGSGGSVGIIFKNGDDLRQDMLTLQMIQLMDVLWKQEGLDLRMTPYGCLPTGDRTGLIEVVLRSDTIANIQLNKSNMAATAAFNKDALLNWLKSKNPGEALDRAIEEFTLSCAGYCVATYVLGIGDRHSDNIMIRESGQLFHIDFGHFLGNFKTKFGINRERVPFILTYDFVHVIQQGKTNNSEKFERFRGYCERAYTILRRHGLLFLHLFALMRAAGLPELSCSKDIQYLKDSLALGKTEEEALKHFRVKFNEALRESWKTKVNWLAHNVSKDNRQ
UniProt P42336, whole entry, looked up: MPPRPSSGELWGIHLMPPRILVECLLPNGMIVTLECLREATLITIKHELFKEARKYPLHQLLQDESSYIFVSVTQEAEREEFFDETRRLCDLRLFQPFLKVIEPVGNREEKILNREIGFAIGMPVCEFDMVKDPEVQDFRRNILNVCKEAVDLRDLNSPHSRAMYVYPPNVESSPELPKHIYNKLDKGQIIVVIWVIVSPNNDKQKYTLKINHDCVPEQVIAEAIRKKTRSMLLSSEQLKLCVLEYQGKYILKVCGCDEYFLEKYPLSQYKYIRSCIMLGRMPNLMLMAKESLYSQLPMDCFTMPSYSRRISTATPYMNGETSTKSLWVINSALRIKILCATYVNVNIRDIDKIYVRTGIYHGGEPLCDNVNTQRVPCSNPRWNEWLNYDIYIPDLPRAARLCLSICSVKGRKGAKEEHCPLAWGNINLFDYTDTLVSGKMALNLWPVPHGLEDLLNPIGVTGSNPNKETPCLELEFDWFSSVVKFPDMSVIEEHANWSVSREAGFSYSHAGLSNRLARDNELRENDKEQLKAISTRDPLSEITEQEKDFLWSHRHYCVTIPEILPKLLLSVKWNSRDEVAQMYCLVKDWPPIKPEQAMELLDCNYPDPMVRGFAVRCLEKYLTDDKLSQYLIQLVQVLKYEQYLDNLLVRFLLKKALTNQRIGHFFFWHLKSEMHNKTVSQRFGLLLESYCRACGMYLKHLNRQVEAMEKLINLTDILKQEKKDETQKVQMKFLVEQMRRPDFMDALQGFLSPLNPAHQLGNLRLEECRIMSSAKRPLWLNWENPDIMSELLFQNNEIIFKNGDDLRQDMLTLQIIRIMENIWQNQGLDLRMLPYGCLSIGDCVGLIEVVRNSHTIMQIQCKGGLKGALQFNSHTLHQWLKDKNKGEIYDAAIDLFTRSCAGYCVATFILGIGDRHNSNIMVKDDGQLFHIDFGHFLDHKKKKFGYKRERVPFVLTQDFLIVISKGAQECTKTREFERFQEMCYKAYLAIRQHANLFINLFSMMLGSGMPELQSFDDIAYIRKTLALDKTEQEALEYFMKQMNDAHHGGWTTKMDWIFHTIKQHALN

What was measured:
Experiment in all cases: Enzyme Assay
PIK3CB (Human) = PIK3CB (Human) (UniProt P42338)
PIK3CD (Human) = PIK3CD (Human) (UniProt O00329)
PIK3CA (human) = PIK3CA (human) (UniProt P42336)

Structure (SMILES) | IC50 (PIK3CB (Human)) [µM] | IC50 (PIK3CD (Human)) [µM] | IC50 (PIK3CA (human)) [µM]
Cc1ccccc1-n1c(Cn2nc(-c3cc(O)cc(F)c3)c3c(N)ncnc32)cc2cccc(C)c2c1=O | 0.1 to 1 |  | 
CC(=O)Nc1nc2ccc(-c3nn(Cc4cc5cccc(C)c5c(=O)n4-c4ccccc4C)c4ncnc(N)c34)cc2s1 |  | < 0.1 | 0.1 to 1
